From PMC8096218, “Global RNA profiles show target selectivity and physiological effects of peptide-delivered antisense antibiotics” (Nucleic Acids Research, 2021) come the findings set out here.

Like-named read-outs stand apart in the source and are kept apart here.

The test concerns wild-type (wt) Salmonella enterica serovar Typhimurium strain SL1344. As for the experimental part:
MIC values were determined by broth microdilution according to standard protocols with a few modifications ([26]). An overnight bacterial cell culture, supplemented with the appropriate antibiotic when needed, was diluted 1:100 in fresh MHB and grown to OD600 0.5. The obtained culture was diluted to ∼10^5 cfu/ml or 10^6 cfu/ml, as indicated, in non-cation-adjusted MHB. Subsequently, 190 μl bacterial solution was dispensed into a 96-well plate (Thermo Fisher Scientific) along with 10 μl of a 20x PPNA, PNA or peptide working solution. Growth was monitored by measuring the OD at 600 nm every 20 min in a Synergy H1 plate reader (Biotek) with continuous double-orbital shaking (237 cpm) at 37°C for 24 h.

Consider `CC[C@H](C)[C@H](NC(=O)[C@H](CCCCN)NC(=O)[C@@H](NC(=O)[C@H](CCC(N)=O)NC(=O)[C@@H](N)CCCNC(=N)N)[C@@H](C)CC)C(=O)N[C@@H](Cc1c[nH]c2ccccc12)C(=O)N[C@@H](Cc1ccccc1)C(=O)N[C@@H](CCC(N)=O)C(=O)N[C@@H](CC(N)=O)C(=O)N[C@@H](CCCNC(=N)N)C(=O)N[C@@H](CCCNC(=N)N)C(=O)N[C@@H](CCSC)C(=O)N[C@@H](CCCCN)C(=O)N[C@@H](Cc1c[nH]c2ccccc12)C(=O)N[C@@H](CCCCN)C(=O)N[C@@H](CCCCN)C(=O)O` [ANT, reference compound], for which the minimum inhibitory concentration (MIC) (in general, the lowest concentration that inhibits growth of the organism) by setting is: (Table 1, ∼10^5 cfu/ml, non-cation-adjusted MHB, 37°C, 24 h) 1.5 µg/mL; (wild-type (wt) serovar Typhimurium strain SL1344, 24 h) 0.7 µM.
